Assay results taken from patent publication US6734182B2, “Aryl sulfonamides and sulfamide derivatives and uses thereof” (Synaptic Pharmaceutical Corporation, priority 1995, dated 2004).

By UniProt entry, the sequences of proteins in these tests, tags left out.
UniProt P35367, whole entry: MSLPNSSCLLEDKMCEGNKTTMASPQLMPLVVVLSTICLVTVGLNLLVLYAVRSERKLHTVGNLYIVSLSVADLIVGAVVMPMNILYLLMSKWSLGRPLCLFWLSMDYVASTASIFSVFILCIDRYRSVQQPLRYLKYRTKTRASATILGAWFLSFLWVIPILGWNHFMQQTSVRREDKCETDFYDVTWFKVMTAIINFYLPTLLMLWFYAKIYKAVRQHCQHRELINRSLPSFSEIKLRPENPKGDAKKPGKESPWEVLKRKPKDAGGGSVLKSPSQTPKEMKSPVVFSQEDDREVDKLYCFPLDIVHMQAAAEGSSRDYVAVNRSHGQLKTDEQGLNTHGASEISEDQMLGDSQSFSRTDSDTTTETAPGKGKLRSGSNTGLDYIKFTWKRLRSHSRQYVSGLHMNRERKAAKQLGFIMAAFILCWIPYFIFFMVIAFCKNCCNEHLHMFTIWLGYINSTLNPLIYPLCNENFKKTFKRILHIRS
UniProt P25021, whole entry: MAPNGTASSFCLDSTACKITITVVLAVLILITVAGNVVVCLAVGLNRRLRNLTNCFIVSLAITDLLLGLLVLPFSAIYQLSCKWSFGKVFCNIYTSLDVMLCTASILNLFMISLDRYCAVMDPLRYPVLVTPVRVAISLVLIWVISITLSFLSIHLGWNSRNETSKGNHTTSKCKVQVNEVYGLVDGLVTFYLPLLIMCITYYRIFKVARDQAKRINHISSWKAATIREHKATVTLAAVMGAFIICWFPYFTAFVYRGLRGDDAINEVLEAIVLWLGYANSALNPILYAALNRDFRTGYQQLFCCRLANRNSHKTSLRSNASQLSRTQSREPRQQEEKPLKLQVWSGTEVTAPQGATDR

What was measured:
[1] = molecular target: T1, cloned human Y5 receptor (Homo sapiens, UniProt Q15761); experiment: Functional assay: block of NPY-induced inhibition of cAMP accumulation in forskolin-stimulated LM(tk-) cells (radioimmunoassay of cAMP); format: cell-based
T1 construct: expressed in transfected cells
T1 sequence (Q15761 1-445): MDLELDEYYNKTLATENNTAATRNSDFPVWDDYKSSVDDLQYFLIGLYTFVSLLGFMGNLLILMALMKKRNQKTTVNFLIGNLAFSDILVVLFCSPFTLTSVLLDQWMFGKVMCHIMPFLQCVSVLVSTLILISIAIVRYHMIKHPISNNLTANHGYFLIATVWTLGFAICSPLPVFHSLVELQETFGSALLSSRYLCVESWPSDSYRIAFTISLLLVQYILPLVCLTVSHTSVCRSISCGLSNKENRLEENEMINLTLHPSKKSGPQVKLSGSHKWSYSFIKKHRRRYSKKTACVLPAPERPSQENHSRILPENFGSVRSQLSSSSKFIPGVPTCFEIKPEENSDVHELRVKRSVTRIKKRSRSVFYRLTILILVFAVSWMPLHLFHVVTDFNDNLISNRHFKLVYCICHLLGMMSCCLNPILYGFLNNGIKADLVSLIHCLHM

[2] = molecular target: T2, human histamine H1 receptor (Homo sapiens, UniProt P35367); experiment: Binding to human histamine H1 receptor ([3H]mepyramine)
T2 construct: expressed in transfected cells; host or cells: COS-7 cells, transient (DEAE-dextran), plasmid pcEXV-H1 (ATCC 75346)

[3] = molecular target: T3, human histamine H2 receptor (Homo sapiens, UniProt P25021); experiment: Binding to human histamine H2 receptor ([3H]tiotidine)
T3 construct: expressed in transfected cells; host or cells: COS-7 cells, transient (DEAE-dextran), plasmid pcEXV-H2 (ATCC 75345)

Question: With `O=S(=O)(NC[C@H]1CC[C@H](CNC(CO)Cc2ccc(Cl)cc2)CC1)c1cccc2ccccc12` (relative stereo) [Example 77, Naphthalene-1-sulfonic Acid trans-(4-{[2-(4-Chloro-phenyl)-1-hydroxymethyl-ethylamino]-methyl}-cyclohexylmethyl)-amide] as the compound, how does the Kb [1] read?
Answer: 311 nM

Question: And the Ki [2]?
Answer: 372 nM

Question: What about the Ki [3] of the same compound?
Answer: 372 nM
